Experimental data published in US11655216B2 (priority 2016, dated 2023).

Protein sequences, listed by entry. Tags and fused reporters are not part of them. Residues count along the entry.
UniProt Q13133, 209-447 limits assumed: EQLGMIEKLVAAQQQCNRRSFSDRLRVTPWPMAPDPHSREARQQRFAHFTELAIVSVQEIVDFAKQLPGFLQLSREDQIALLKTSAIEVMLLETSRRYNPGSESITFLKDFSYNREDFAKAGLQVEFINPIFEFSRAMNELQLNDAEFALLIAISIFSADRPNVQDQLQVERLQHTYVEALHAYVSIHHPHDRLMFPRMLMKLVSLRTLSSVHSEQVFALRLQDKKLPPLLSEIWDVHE

Target: T1, glutathione-S-transferase (GST) tagged LXRalpha LBD (ligand binding domain) (Homo sapiens, UniProt Q13133)
T1 construct: purchased Invitrogen pv4655
Test: biochemical
Format: biochemical
Conditions: for EC50: LXR alpha IP; for LXR alpha actiivty at max dose: efficacy (% Emax) in relation to reference dual agonist T0901317
Experimental: While running the LanthaScreen™ TR-FRET Liver X Receptor Coactivator Assay, LXR alpha-LBD or LXR beta-LBD was added to ligand test compounds followed by addition of a mixture of a fluorescein-labelled coactivator peptide and terbium-conjugated anti-GST antibody. After an incubation period at room temperature, TR-FRET (time-resolved fluorescence resonance energy transfer) was measured using a filter-based instrument capable of TR-FRET, e.g. PerkinElmer Envision.

[1] = potency (Inflection Point), compound-induced co-activator recruitment, TR-FRET

Structure (SMILES)	EC50 [1] [nM]	Emax (read-out: LXR alpha actiivty at max dose, efficacy (% Emax) in relation to reference dual agonist T0901317) [%]	LXR alpha actiivty at max dose [%]	LXR alpha IP [1]
CCc1nc(OCCCCC2CCN(C(=O)C(O)(c3ccccc3)C(F)(F)F)CC2)ccc1C(=O)N(C)C (stereo not drawn) [Example 5-2, 2-ethyl-N,N-dimethyl-6-(4-(1-(3,3,3-trifluoro-2-hydroxy-2-phenylpropanoyl)piperidin-4-yl)butoxyl)nicotinamide]	2510	32	–	–
CN(C)C(=O)c1ccc(OCCCCC2CCN(C(=O)C(O)(c3ccccc3)C(F)(F)F)CC2)nc1Cl (single isomer, unassigned) [Example 3-16, (R or S)-2-chloro-N,N-dimethyl-6-(4-(1-(3,3,3-trifluoro-2-hydroxy-2-phenylpropanoyl)piperidin-4-yl)butoxy)nicotinamide]	–	–	5	No IP
CN(C)C(=O)c1ccc(OCCCCC2CCN(C(=O)C(O)(c3ccccc3)C(F)(F)F)CC2)nc1Cl (single isomer, unassigned) [Example 3-17, (S or R)-2-chloro-N,N-dimethyl-6-(4-(1-(3,3,3-trifluoro-2-hydroxy-2-phenylpropanoyl)piperidin-4-yl)butoxy)nicotinamide]	334	–	41	–
